Data taken from BindingDB's records for doi:10.1124/jpet.103.064907 (Abbott Laboratories, 2004).

Target: T1, P2X purinoceptor 3 (Homo sapiens, UniProt P56373)
T1 sequence (P56373 whole entry): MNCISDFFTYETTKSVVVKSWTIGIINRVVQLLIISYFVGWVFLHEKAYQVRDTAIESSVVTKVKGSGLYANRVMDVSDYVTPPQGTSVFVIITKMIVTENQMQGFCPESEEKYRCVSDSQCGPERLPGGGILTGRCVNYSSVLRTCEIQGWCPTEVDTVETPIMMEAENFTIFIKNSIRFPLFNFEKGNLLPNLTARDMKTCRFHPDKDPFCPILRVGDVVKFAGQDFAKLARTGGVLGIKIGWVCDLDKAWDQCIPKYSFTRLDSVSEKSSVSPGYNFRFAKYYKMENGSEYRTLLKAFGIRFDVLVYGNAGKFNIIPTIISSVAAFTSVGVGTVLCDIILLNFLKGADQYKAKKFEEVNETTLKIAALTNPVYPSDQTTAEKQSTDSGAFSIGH

Question: Cc1nc(/N=N/c2ccc(S(=O)(=O)O)cc2S(=O)(=O)O)c(COP(=O)(O)O)c(C=O)c1O was tested. Which Ki did it give?
Answer: The Ki was 3.47 µM.
